{
  "sequences": {"note": "Sequences of proteins named here, by UniProt entry; tags and fusion partners are left off. A change or cut given only in a name is not applied to a line headed by its entry.", "UniProt P49281": "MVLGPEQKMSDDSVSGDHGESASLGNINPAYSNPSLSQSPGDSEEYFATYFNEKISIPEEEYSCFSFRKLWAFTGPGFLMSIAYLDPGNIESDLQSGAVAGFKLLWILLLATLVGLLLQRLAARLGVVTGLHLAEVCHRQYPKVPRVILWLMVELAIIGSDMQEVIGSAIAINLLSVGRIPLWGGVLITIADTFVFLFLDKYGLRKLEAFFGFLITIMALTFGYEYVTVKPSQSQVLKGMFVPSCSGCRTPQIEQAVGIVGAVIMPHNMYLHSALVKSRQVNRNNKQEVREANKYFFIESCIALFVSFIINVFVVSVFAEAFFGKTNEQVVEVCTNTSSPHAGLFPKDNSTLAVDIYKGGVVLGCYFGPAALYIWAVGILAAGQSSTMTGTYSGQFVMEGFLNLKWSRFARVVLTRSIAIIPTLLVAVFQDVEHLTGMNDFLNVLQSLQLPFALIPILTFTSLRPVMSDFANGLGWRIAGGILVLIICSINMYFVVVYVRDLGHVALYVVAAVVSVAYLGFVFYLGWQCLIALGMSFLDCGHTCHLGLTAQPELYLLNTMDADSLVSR"},
  "source": "paper PMC7082075",
  "origin": "cited, not measured here",
  "target": "DMT1-II (Homo sapiens) (UniProt P49281)",
  "details": "cited from earlier work",
  "data": [
    {"substance": "SNX3-retromer (SNX3/VPS35/VPS26) (from UniProt O60493)", "values": [
      {"measurement": "Kd", "value": 127, "unit": "µM"}
    ]}
  ]
}
